The entries are a selection whose mix differs from that of the whole data set. Calls of active or inactive are those of the source. No stated cut-off is given here; in the data, active means inhibition above about 40%.
target: Bcl-2-like protein 1 (Homo sapiens) (UniProt Q07817); assay: inhibitors of Bim-Bcl-XL binding, primary screen, biochemical, multiplexed, bead flow cytometry, human Bcl-XL (AID 1007); conditions: Bim peptide-Bcl-XL binding, fluorescence, at 10 µM, hits give high values

Sequences of proteins named here, by UniProt entry; tags and fusion partners are left off.
UniProt Q07817, whole entry: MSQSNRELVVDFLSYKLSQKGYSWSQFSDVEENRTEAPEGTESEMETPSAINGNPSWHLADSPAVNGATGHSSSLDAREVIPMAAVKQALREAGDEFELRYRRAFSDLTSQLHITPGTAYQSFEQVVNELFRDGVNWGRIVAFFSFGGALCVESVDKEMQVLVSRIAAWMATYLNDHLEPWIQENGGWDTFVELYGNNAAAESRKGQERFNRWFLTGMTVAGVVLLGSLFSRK

SMILES	inhibition
COc1ccccc1OP(C)(=O)Nc1ccccc1 (stereo not given)	inactive: -2%
CP(=O)(Nc1ccccc1Br)Oc1ccccc1 (stereo not given)	inactive: -3%
CP(=S)(Nn1cnnc1)Oc1ccccc1 (stereo not given)	inactive: -4%
CP(=O)(NC(=O)Nc1ccccc1)Oc1ccccc1 (stereo not given)	inactive: -4%
Cc1cc(C)cc(OP(C)(=O)Nc2ccc(SC(F)(F)F)cc2)c1 (stereo not given)	inactive: 1%
Cc1cccc(C)c1OP(C)(=O)Nc1ccc(SC(F)(F)F)cc1 (stereo not given)	inactive: 10%
CP(=O)(Oc1ccccc1)OC(c1ccccc1)C(F)(F)F (stereo not given)	inactive: 0%
CP(=O)(Nc1ccccn1)Oc1ccc(Cl)cc1 (stereo not given)	inactive: -3%
CCOP(C)(=S)SCC(=O)NC(C)C(=O)O (stereo not given)	inactive: 0%
CCOC(=O)c1ccc(NP(C)(=O)Oc2ccc(OC)cc2)cc1 (stereo not given)	inactive: -12%
CCN(CC)CCCOC(=O)C(O)(c1ccccc1)c1ccccc1	inactive: -4%
CC(C)(C)c1ccc(OP(C)(=O)Nc2ccc(SC(F)(F)F)cc2)cc1 (stereo not given)	inactive: -3%
Cc1cccc(C)c1OP(C)(N)=O (stereo not given)	inactive: 1%
O=[N+]([O-])c1ccc2c(c1)C=Nc1ccccc1O2	inactive: -3%
COc1ccccc1OP(C)(=O)Nc1cc(Cl)ccc1C (stereo not given)	inactive: -2%
COc1ccc(OP(C)(=O)Nc2cccc(F)c2)cc1 (stereo not given)	inactive: 0%
Cc1cc(C)cc(OP(C)(N)=O)c1 (stereo not given)	inactive: -1%
CCOC(=O)c1ccc(NP(C)(=O)Oc2ccccc2)cc1 (stereo not given)	inactive: -5%
COc1ccccc1OP(C)(=O)Nc1ccc(C)cc1 (stereo not given)	inactive: 7%
Cc1ccc(NP(C)(=O)Oc2ccccc2)c(C)c1 (stereo not given)	inactive: 4%
CC1=NCCc2c1[nH]c1ccccc21.O=[N+]([O-])c1cc([N+](=O)[O-])c(O)c([N+](=O)[O-])c1	inactive: -1%
Cc1cc(C)cc(OP(C)(=O)Nc2ccc(C)cc2C)c1 (stereo not given)	inactive: 3%
CCOC(=O)c1ccc(NP(C)(=O)Oc2cc(C)cc(C)c2)cc1 (stereo not given)	inactive: -3%
CP(=O)(Nc1cccc(Br)c1)Oc1ccccc1 (stereo not given)	inactive: -2%
Cc1cc(C)cc(OP(C)(=O)Nc2ccccn2)c1 (stereo not given)	inactive: -6%
Cc1ccc(C)c(NP(C)(=O)Oc2ccccc2)c1 (stereo not given)	inactive: 0%
O=[N+]([O-])c1cc([N+](=O)[O-])c(-n2nnc3ccccc32)c([N+](=O)[O-])c1	inactive: -5%
Cc1nc2ccc3ccccc3c2s1.O=[N+]([O-])c1cc([N+](=O)[O-])c(O)c([N+](=O)[O-])c1	inactive: 2%
CP(=O)(Nc1ccc(SC(F)(F)F)cc1)Oc1ccccc1 (stereo not given)	inactive: -9%
CCCOc1ccc(NP(C)(=O)Oc2ccc(Cl)cc2)cc1 (stereo not given)	inactive: 0%
